# Ab-95 light chain CDR variants: yeast mating affinities

From the AlphaSeq antibody data of Engelhart et al. 2022 (doi:10.1038/s41597-022-01779-4), copy in the FLAb collection.

The target is the same throughout: PDVDLGDISGINAS, from the HR2 region of SARS-CoV-2 spike.

The variants keep the heavy chain, the linker and the frameworks of Ab-95 (scFv order VH, a (GGGGS)3 linker, VL).
VH: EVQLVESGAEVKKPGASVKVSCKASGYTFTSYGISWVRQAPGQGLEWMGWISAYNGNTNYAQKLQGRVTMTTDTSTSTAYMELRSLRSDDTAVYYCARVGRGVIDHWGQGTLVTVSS
VL: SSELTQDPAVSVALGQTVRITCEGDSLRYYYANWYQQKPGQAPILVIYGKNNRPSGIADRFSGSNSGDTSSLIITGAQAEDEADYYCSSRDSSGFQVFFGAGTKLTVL

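The starting antibody came from a phage panning campaign against this peptide. In library AAYL52, one, two or three CDR residues were substituted; doubles and triples were drawn at random. AlphaSeq pools MATa yeast showing the antibodies with MATalpha yeast showing the peptide. Pairs that bind mate more often; barcode pairs of the diploids are counted by sequencing. The ratio of observed to expected reads was calibrated, replicate by replicate, on BCL2-family standards whose Kd was known from biolayer interferometry. Mating was done three times.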

Changes read parent residue, position, new residue, counted from the first residue of the VL shown.
Affinities are written as log10 Kd with Kd in nM; a lower number is a better binder.
A mean of the replicates is given; it leaves out those without a signal.
Where no diploid with the target was found in that replicate, the entry reads "n.d.": below detection, most likely a poor binder, though not proof of it.
As a blank, each scFv also met three strains without target: over library AAYL52, 28% of these pairings were detected, typically at 3.91 and seldom below 2.90. For each scFv, signals with the empty controls are counted beside the result, with their mean in brackets.
In this assay the parent's reference entry averaged 2.31; its copy inside this library read 2.25.

| changes | log10 Kd (nM) by replicate | log10 Kd (nM), mean | empty controls |
|---|---|---|---|
| S55N+S93L+F98T | n.d. 4.27 3.32 | 3.79 | 2/9 (4.32) |
| G49R+K50C+D91I | 5.60 4.82 n.d. | 5.21 | 5/9 (3.50) |
| G49E+N52C+V97F | 2.93 3.35 3.36 | 3.21 | 7/9 (4.34) |
| N33V+G94N+F98L | n.d. n.d. 3.99 | 3.99 | 3/9 (4.15) |
| Y30C+Y31D+G49T | 3.25 3.19 3.04 | 3.16 | 3/9 (4.51) |
| S26T+S89Y+S93G | n.d. n.d. n.d. | n.d. | 2/9 (4.01) |
| R53I+S93L+Q96H | 4.72 n.d. 3.09 | 3.91 | 4/9 (4.38) |
| A32E+N33A+S93Q | 3.89 4.90 n.d. | 4.40 | 4/9 (4.40) |
| D25A+N33K+K50C | 4.62 n.d. 2.42 | 3.52 | 4/9 (3.64) |
| S89A+Q96R+F98D | 2.82 4.66 2.27 | 3.25 | 3/9 (3.82) |
| S26T+L27G+D91C | 3.27 n.d. n.d. | 3.27 | 1/9 (3.98) |
| G94Y+F95A | 4.36 n.d. n.d. | 4.36 | 3/9 (4.30) |
| K50I+S55Q+S88L | 4.06 3.41 n.d. | 3.73 | 3/9 (3.52) |
| K50R+N52P+S93K | 3.59 n.d. n.d. | 3.59 | 0/9 |
| Y29A+G94P | 3.91 3.04 3.35 | 3.43 | 3/9 (3.45) |
| Y30E+N33M+N51A | 3.31 2.94 3.71 | 3.32 | 3/9 (3.99) |
| Y29D+N51L+R53G | 5.29 4.27 n.d. | 4.78 | 3/9 (4.23) |
| Y29Q+Y31N+D91N | n.d. n.d. n.d. | n.d. | 1/9 (4.12) |
| E23G+L27A+N33R | 5.24 n.d. n.d. | 5.24 | 2/9 (3.74) |
| Y29L+A32V+V97S | n.d. n.d. n.d. | n.d. | 2/9 (3.62) |
| L27P+S89H+R90H | n.d. n.d. n.d. | n.d. | 0/9 |
| P54V+F95M+Q96A | 3.72 3.79 4.16 | 3.89 | 3/9 (3.94) |
| Y31H+S93I+F95S | 2.40 2.25 2.55 | 2.40 | 2/9 (2.85) |
| G24A+N33T | 0.84 0.59 -0.07 | 0.45 | 7/9 (4.24) |
| K50L+S93K+V97D | n.d. n.d. 2.47 | 2.47 | 4/9 (3.49) |
| Y29N+A32D+K50V | 3.80 3.38 n.d. | 3.59 | 1/9 (2.68) |
| Y29N+Y30I+D91M | 2.21 2.18 2.08 | 2.16 | 4/9 (4.47) |
| E23I+Y31G+N51C | 2.05 2.20 1.66 | 1.97 | 2/9 (3.17) |
| L27W+D91G+F95R | 2.85 2.55 2.76 | 2.72 | 4/9 (4.21) |
| D25C+S93I | 5.14 n.d. n.d. | 5.14 | 3/9 (3.47) |
| D25F+R28D+N33L | 2.34 2.34 2.05 | 2.24 | 3/9 (3.63) |
| K50I+F95A+V97S | 3.15 3.52 2.71 | 3.13 | 3/9 (4.13) |
| P54M+S89H+R90Q | 2.50 3.30 4.59 | 3.46 | 3/9 (3.96) |
| E23P+Y31P | 3.02 2.39 2.58 | 2.66 | 1/9 (4.01) |
| Y30C+G49D+S88F | n.d. 5.07 n.d. | 5.07 | 1/9 (4.92) |
| R28C+P54Y+S55R | n.d. 3.41 n.d. | 3.41 | 4/9 (3.36) |
| E23G+D25R+N51K | 5.80 4.97 4.71 | 5.16 | 4/9 (3.97) |
| N33H+D91N+F98I | n.d. n.d. 3.51 | 3.51 | 2/9 (3.07) |
| N33Y+S92T+F95V | 4.20 5.35 4.28 | 4.61 | 1/9 (3.85) |
| N33K+K50M+S92A | 3.19 5.15 3.68 | 4.00 | 3/9 (3.34) |